The results in this text go back to PubChem BioAssay (NCATS).

Molecules are shown by their SMILES. The hits were mostly taken out for another list; the other results follow. Inconclusive results are not listed. Active and inactive are the calls of the source. Calls follow the shape of the dose curve; as a rule, active = well fitted inhibition curve with a large enough effect; inconclusive = small, poorly fitted or top-dose-only effect; inactive = flat fitted curve, though single readings scatter.
% is scaled to controls: 0 for no effect and ±100 for the full control effect.
Also: nearly all actives have a fitted effect of over 60% in size.

In one test the test system is KB-3-1. Nature of the test: Cytotoxic Profiling of Annotated Libraries Using Quantitative High-Throughput Screening (AID 1296008). Conditions: Five cell lines viability, CellTiter-Glo ATP luminescence, 48-72 h, hits give low values. The procedure, abridged: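 Compounds were pin-transferred onto cells and incubated 48 or 72 hr at 37 degree Celsius, 95% humidity. CellTiter-Glo was added, plates sat 10 min at room temperature, then ATP-coupled luminescence was imaged as the viability read-out.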
On to `Cc1ccccc1`, for which the max response is inactive: -8.83%.

In the case of `C[C@]12C[C@H](O)[C@H]3[C@@H](CCC4=CC(=O)CC[C@@]43C)[C@@H]1CC[C@@H]2C(=O)CO`, the max response was inactive: -1.46%.

Take `CN=C(NC#N)NCCSCc1csc(N=C(N)N)n1`: the max response is inactive: 19.3%.

Regarding `CC(C)O`, the max response is inactive: -22%.

For the compound `C[C@]12CCC(=O)C=C1CC[C@@H]1[C@@H]2C(=O)C[C@@]2(C)[C@H]1CC[C@]2(O)C(=O)CO`, the max response was inactive: -2.98%.

In the case of `CC(C)(C)NCC(O)COc1cccc2c1C[C@H](O)[C@H](O)C2` (some centres not stated), the max response was inactive: -11.4%.

On to `CC(C)(C)C1(O)CCN2CC3c4ccccc4CCc4cccc(c43)C2C1` (configuration not stated), for which the max response was inactive: 23.3%.

For the compound `NC(N)=O`, the max response is inactive: -1.39%.

As to `Cc1cn([C@H]2C[C@H](F)[C@@H](CO)O2)c(=O)[nH]c1=O`, the max response is inactive: -4.3%.

Turning to `CN1CCN(CCC=C2c3ccccc3Sc3ccc(S(=O)(=O)N(C)C)cc32)CC1`, the max response was inactive: -1.88%.

With `O=C(O)CCCC[C@@H]1SC[C@@H]2NC(=O)N[C@@H]21`, the max response was inactive: -9.42%.

The next test has as its system MCC-13. The test can be described thus: qHTS assay to identify novel small-molecules to repurpose for Merkel cell carcinoma treatment (AID 1296009). As to conditions: MCC and control cell lines, CellTiter-Glo viability, 72 h; at 46 µM (top of the series). The procedure, abridged:
(§1)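 Viability readout: ATP luminescence (CellTiter-Glo) after 72 hr drug exposure at 37 degree celsius. Dose-response format was 8 points for NPC and 11 points for MIPE; data normalized to in-plate controls.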
On the technique in general: qHTS replaces the single test concentration by a dilution series.
For the compound `Cc1cccc(C)c1OCC(=O)N[C@@H](Cc1ccccc1)[C@@H](O)C[C@H](Cc1ccccc1)NC(=O)[C@H](C(C)C)N1CCCNC1=O`, the activity change, negative = cytotoxicity was inactive: 5.11%.

For `CC(C)Oc1ccc2c(=O)c(-c3ccccc3)coc2c1`, the activity change, negative = cytotoxicity is inactive: 4.42%.

On to `Cc1nnc(NS(=O)(=O)c2ccc(N)cc2)s1`, for which the activity change, negative = cytotoxicity was inactive: -3.19%.

For `Oc1ccc(C2CNCCc3c2cc(O)c(O)c3Cl)cc1` (configuration not stated), the activity change, negative = cytotoxicity is inactive: -1.16%.

Consider `CCCCc1nc(Cl)c(CO)n1Cc1ccc(-c2ccccc2-c2nn[nH]n2)cc1`, for which the activity change, negative = cytotoxicity is inactive: 17.8%.

Take `COc1cccc(OC)c1C(=O)N[C@@H]1C(=O)N2[C@@H]1SC(C)(C)[C@@H]2C(=O)O`: the activity change, negative = cytotoxicity is inactive: -14%.

With `N[C@@H]1CONC1=O`, the activity change, negative = cytotoxicity was inactive: 2.73%.

As to `C#C[C@]1(OC(C)=O)CC[C@H]2[C@@H]3CCC4=C[C@@H](OC(C)=O)CC[C@@H]4[C@H]3CC[C@@]21C`, the activity change, negative = cytotoxicity was inactive: -7.15%.

For `Nc1nc2c(ncn2COCCO)c(=O)[nH]1`, the activity change, negative = cytotoxicity is inactive: -0.45%.

Consider `CN1C(CCl)Nc2cc(Cl)c(S(N)(=O)=O)cc2S1(=O)=O` (configuration not stated), for which the activity change, negative = cytotoxicity was inactive: 11.9%.

On to `Nc1[nH]c(=O)ncc1F`, for which the activity change, negative = cytotoxicity was inactive: -1.18%.

In another test the test system is MCC-26. The test is described as above. As to conditions: MCC and control cell lines, CellTiter-Glo viability, 72 h; at 46 µM (top of the series). In outline:
as §1
On to `Cc1cccc(C)c1OCC(=O)N[C@@H](Cc1ccccc1)[C@@H](O)C[C@H](Cc1ccccc1)NC(=O)[C@H](C(C)C)N1CCCNC1=O`, for which the activity change, negative = cytotoxicity is inactive: 3.05%.

Regarding `CC(C)Oc1ccc2c(=O)c(-c3ccccc3)coc2c1`, the activity change, negative = cytotoxicity is inactive: 7.13%.

As to `Cc1nnc(NS(=O)(=O)c2ccc(N)cc2)s1`, the activity change, negative = cytotoxicity was inactive: -9.18%.

Consider `Oc1ccc(C2CNCCc3c2cc(O)c(O)c3Cl)cc1` (configuration not stated), for which the activity change, negative = cytotoxicity is inactive: -12.1%.

Take `CCCCc1nc(Cl)c(CO)n1Cc1ccc(-c2ccccc2-c2nn[nH]n2)cc1`: the activity change, negative = cytotoxicity was inactive: 8.57%.

Take `COc1cccc(OC)c1C(=O)N[C@@H]1C(=O)N2[C@@H]1SC(C)(C)[C@@H]2C(=O)O`: the activity change, negative = cytotoxicity was inactive: 11.2%.

On to `N[C@@H]1CONC1=O`, for which the activity change, negative = cytotoxicity is inactive: 0.978%.

Consider `C#C[C@]1(OC(C)=O)CC[C@H]2[C@@H]3CCC4=C[C@@H](OC(C)=O)CC[C@@H]4[C@H]3CC[C@@]21C`, for which the activity change, negative = cytotoxicity was inactive: 1.1%.

Turning to `Nc1nc2c(ncn2COCCO)c(=O)[nH]1`, the activity change, negative = cytotoxicity was inactive: -6.8%.

As to `CN1C(CCl)Nc2cc(Cl)c(S(N)(=O)=O)cc2S1(=O)=O` (configuration not stated), the activity change, negative = cytotoxicity was inactive: -4.56%.

For the compound `Nc1[nH]c(=O)ncc1F`, the activity change, negative = cytotoxicity was inactive: 1.99%.

The test system of another test is MKL-1. The description is as above. Conditions: MCC and control cell lines, CellTiter-Glo viability, 72 h; at 46 µM (top of the series). The procedure, abridged: as §1
(Cellular ATP, detected with luciferase, serves as a proxy for viable cell number.)
Take `Cc1cccc(C)c1OCC(=O)N[C@@H](Cc1ccccc1)[C@@H](O)C[C@H](Cc1ccccc1)NC(=O)[C@H](C(C)C)N1CCCNC1=O`: the activity change, negative = cytotoxicity is inactive: 15.8%.

As for `CC(C)Oc1ccc2c(=O)c(-c3ccccc3)coc2c1`, the activity change, negative = cytotoxicity is inactive: 2.33%.

`Cc1nnc(NS(=O)(=O)c2ccc(N)cc2)s1`: the activity change, negative = cytotoxicity is inactive: -4.83%.

On to `Oc1ccc(C2CNCCc3c2cc(O)c(O)c3Cl)cc1` (configuration not stated), for which the activity change, negative = cytotoxicity is inactive: -16.6%.

Consider `CCCCc1nc(Cl)c(CO)n1Cc1ccc(-c2ccccc2-c2nn[nH]n2)cc1`, for which the activity change, negative = cytotoxicity was inactive: 3.16%.

Turning to `COc1cccc(OC)c1C(=O)N[C@@H]1C(=O)N2[C@@H]1SC(C)(C)[C@@H]2C(=O)O`, the activity change, negative = cytotoxicity is inactive: 0.615%.

As to `N[C@@H]1CONC1=O`, the activity change, negative = cytotoxicity is inactive: -7.66%.

Consider `Nc1nc2c(ncn2COCCO)c(=O)[nH]1`, for which the activity change, negative = cytotoxicity was inactive: -3.5%.

As to `CN1C(CCl)Nc2cc(Cl)c(S(N)(=O)=O)cc2S1(=O)=O` (configuration not stated), the activity change, negative = cytotoxicity was inactive: -1.36%.

As to `Nc1[nH]c(=O)ncc1F`, the activity change, negative = cytotoxicity is inactive: 13.5%.

Another test has as its system MKL-2. The description is as above. Conditions: MCC and control cell lines, CellTiter-Glo viability, 72 h; at 46 µM (top of the series). The procedure, abridged:
as §1
Take `CC(C)Oc1ccc2c(=O)c(-c3ccccc3)coc2c1`: the activity change, negative = cytotoxicity is inactive: -16.8%.

With `Cc1nnc(NS(=O)(=O)c2ccc(N)cc2)s1`, the activity change, negative = cytotoxicity was inactive: 6.98%.

Turning to `Oc1ccc(C2CNCCc3c2cc(O)c(O)c3Cl)cc1` (configuration not stated), the activity change, negative = cytotoxicity was inactive: -26.9%.

As to `CCCCc1nc(Cl)c(CO)n1Cc1ccc(-c2ccccc2-c2nn[nH]n2)cc1`, the activity change, negative = cytotoxicity is inactive: 7.5%.

Take `COc1cccc(OC)c1C(=O)N[C@@H]1C(=O)N2[C@@H]1SC(C)(C)[C@@H]2C(=O)O`: the activity change, negative = cytotoxicity is inactive: 4.1%.

In the case of `N[C@@H]1CONC1=O`, the activity change, negative = cytotoxicity is inactive: -7.71%.

`Nc1nc2c(ncn2COCCO)c(=O)[nH]1`: the activity change, negative = cytotoxicity is inactive: 10.3%.

`CN1C(CCl)Nc2cc(Cl)c(S(N)(=O)=O)cc2S1(=O)=O` (configuration not stated): the activity change, negative = cytotoxicity was inactive: -8.25%.

Turning to `Nc1[nH]c(=O)ncc1F`, the activity change, negative = cytotoxicity was inactive: 6.04%.
